Source: patent US20250144132A1, “POLYSACCHARIDE COMPOUND WITH A DEFINED MOLECULAR STRUCTURE THAT CAN ELIMINATE THE TOXIC SIDE EFFECTS OF CHEMOTHERAPY DRUGS” (priority 2023, published 2025)
Like-named read-outs stand apart in the source and are kept apart here.

Tested on: 4T1 breast tumor-bearing mice
Assay type: in vivo, BALB/c mice
Description: A suspension of 4T1 breast cancer cells was injected subcutaneously into the left shoulder back of 60 healthy female BALB/c mice to create solid tumor models. When the mean tumor volume reached approximately 190 mm^3, the mice were randomized into groups based on tumor volume, and were administered the respective drugs or drug solvents via oral gavage or intraperitoneal injection over 18 consecutive days. Longest and shortest diameters of tumors were measured every three days to calculate tumor volume, and mouse weights were recorded every three days. At the end of the experiment, tumors, spleens, and thymuses were harvested and weighed to calculate tumor, spleen, and thymus indices.
Based on previous experimental results, Ganoderma lucidum polysaccharide GLP-1 was administered at a low dose of 50 mg/kg and a high dose of 150 mg/kg as shown in Table 27.
Relative tumor growth inhibition rate (%)=(1−TRTV/CRTV)×100%. Where TRTV is the relative tumor volume in the experimental group, and CRTV is the relative tumor volume in the model control group. […]
Spleen and thymus organ coefficients: After the last dose, spleen, thymus, and tumor weights are measured, and organ coefficients are calculated. […]
Statistical analyses were performed using SPSS 17.0, with the significance level set at P≤0.05. Measurement data were expressed as mean±standard deviation (˜±s). […]

**Q.** How did the Mortality rate (4T1 breast tumor-bearing mice, cisplatin 4 mg/kg i.p.) turn out when `N.N.[Cl][Pt][Cl]` [Cisplatin, cisplatin] was run?
**A.** The Mortality rate was 12.5%.

**Q.** And the Mortality rate (18 days of dosing, cisplatin 4 mg/kg, GLP-1 low-dose 50 mg/kg)?
**A.** Its Mortality rate is 12.5%.
